From publication PMC10698161, “Investigation of monoclonal antibody CSX-1004 for fentanyl overdose” (2023)

Columns and labels:
opioid antinociception = assay: NHP antinociception (warm water tail withdrawal procedure); conditions: for Opioid ED50, Tail Withdrawal: linear regression analysis; for Fig 6B Tail Withdrawal Latency to Nociception: individual NHP; for Fig 6B Tail Withdrawal (% of Baseline): opioid 0.032 mg/kg, individual NHPs
[1] = human; cited from earlier work
[2] = system: carfentanil-induced respiratory depression; assay: Reversal of carfentanil-induced respiratory depression in mice (whole-body plethysmography); conditions: IV naloxone 1 mg/kg or IV CSX-1004 60 mg/kg at 15 min after carfentanil
[3] = system: opioid response-rate decreasing effects; assay: NHP food-maintained operant responding procedure; conditions: linear regression analysis
[4] = system: opioid-induced respiratory depression (OIRD); assay: NHP respiration procedure (whole-body plethysmography, opioid-induced respiratory depression); conditions: for Opioid ED50, Respiration: linear regression analysis; for ED50 ± SEM: Respiration

CN1CC[C@]23c4c5ccc(O)c4O[C@H]2[C@@H](O)C=C[C@H]3[C@H]1C5
Opioid ED50, Tail Withdrawal (opioid antinociception; Pre-mAb): 0.923 mg/kg
Opioid ED50, Tail Withdrawal (opioid antinociception; mAb 10 mg/kg): 1.22 mg/kg
Opioid ED50, Tail Withdrawal (opioid antinociception; mAb 40 mg/kg): 0.982 mg/kg
Fig 6B Tail Withdrawal Latency to Nociception (opioid antinociception; morphine 1.8 mg/kg, mAb 10 mg/kg): 10 s (2×) and 3.455 s and 8.61 s
Fig 6B Tail Withdrawal Latency to Nociception (opioid antinociception; morphine 1.8 mg/kg, mAb 40 mg/kg): 10 s (2×) and 6.465 s and 9.09 s

CC(=O)Oc1ccc2c3c1O[C@H]1[C@@H](OC(C)=O)C=C[C@H]4[C@@H](C2)N(C)CC[C@@]341
time for which overdoses may not be lethal [1]: at least 30 min

C=CCN1CC[C@]23c4c5ccc(O)c4O[C@H]2C(=O)CC[C@@]3(O)[C@H]1C5
time until respiration began to improve compared to saline-treated animals [2]: ≤ 10 min

COc1ccc2c3c1O[C@H]1C(=O)CC[C@@]4(O)[C@@H](C2)N(C)CC[C@]314
Opioid ED50, Response Rate ([3]; Pre-mAb): 0.34 mg/kg
Opioid ED50, Response Rate ([3]; mAb 10 mg/kg): 0.284 mg/kg
Opioid ED50, Response Rate ([3]; mAb 40 mg/kg): 0.363 mg/kg
Opioid ED50, Tail Withdrawal (opioid antinociception; Pre-mAb): 0.317 mg/kg
Opioid ED50, Tail Withdrawal (opioid antinociception; mAb 10 mg/kg): 0.322 mg/kg
Opioid ED50, Tail Withdrawal (opioid antinociception; mAb 40 mg/kg): 0.389 mg/kg
Fig 6B Tail Withdrawal (% of Baseline) (opioid antinociception; mAb 10 mg/kg (TW)): 0 % of Baseline
Fig 6B Tail Withdrawal (% of Baseline) (opioid antinociception; mAb 40 mg/kg (TW)): 0 % of Baseline
Fig 6B Tail Withdrawal Latency to Nociception (opioid antinociception; oxycodone 0.56 mg/kg, mAb 40 mg/kg): 10 s (2×) and 4.97 s and 7.51 s
Opioid ED50, Respiration ([4]; Pre-mAb): 0.475 mg/kg
ED50 ± SEM ([4]; Pre-mAb): 0.475 mg/kg
ED50 ± SEM ([4]; after 40 mg/kg CSX-1004): 0.475 mg/kg
Opioid ED50, Respiration ([4]; mAb 10 mg/kg): 0.609 mg/kg
Opioid ED50, Respiration ([4]; mAb 40 mg/kg): 0.475 mg/kg

Values joined by “and” are separate entries in the source; they are usually repeats but may differ in a detail not shown here. Equal values may be shown once.
